Results taken from patent US20050148631A1, “Amino heterocyclyl inhibitors of 11-beta-hydroxy steroid dehydrogenase type 1” (AGOURON PHARMACEUTICALS, INC., priority 2003, published 2005).

The chains behind the UniProt entries cited, without tags or fusion partners.
UniProt P28845, whole entry: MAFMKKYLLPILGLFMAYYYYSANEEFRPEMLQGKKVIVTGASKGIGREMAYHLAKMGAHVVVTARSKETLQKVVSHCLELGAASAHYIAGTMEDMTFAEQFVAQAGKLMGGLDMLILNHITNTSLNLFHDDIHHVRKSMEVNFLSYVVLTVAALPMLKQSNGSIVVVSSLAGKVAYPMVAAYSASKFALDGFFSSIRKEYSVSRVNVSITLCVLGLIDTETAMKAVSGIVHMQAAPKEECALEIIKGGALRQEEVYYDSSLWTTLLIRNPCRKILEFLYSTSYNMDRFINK

Assays:
[1] = target: T1, 11β-hsd-1 enzyme (Homo sapiens, UniProt P28845); assay: 11β-hsd-1 enzyme assay, Kiapp determination (3H-cortisone to cortisol, radio-HPLC); type: biochemical; conditions: read-out: Ki app
[2] = target: T1, 11β-hsd-1 enzyme; assay: 11β-hsd-1 enzyme assay, percentage of inhibition (3H-cortisone to cortisol, radio-HPLC); type: biochemical

Row | Ki [1] [nM] | % inh @ 0.1 uM [2] [%] | Compound
1 | < 1 | 100 | Nc1cccc(NS(=O)(=O)c2ccc3c(Cl)cccc3c2)n1
2 | 32.8 | 76.3 | Cc1cccc(NS(=O)(=O)c2sc(-c3ccccc3)cc2C)n1
